PubChem BioAssay AID720509 (The Scripps Research Institute Molecular Screening Center, 2013)
The list shows a part of the results, in another mix than the full data. Some tests of the compounds listed are not included; inactive here does not mean inactive elsewhere. Active and inactive are the calls of the source.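 How the source made its calls: active means inhibition above a per-campaign cutoff: mean of compounds within control limits plus 3 SD (cut at about 15% in these data); inactive means the rest.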

Amino acid sequences for entries named in this document (tags omitted).
UniProt P02675, whole entry, looked up: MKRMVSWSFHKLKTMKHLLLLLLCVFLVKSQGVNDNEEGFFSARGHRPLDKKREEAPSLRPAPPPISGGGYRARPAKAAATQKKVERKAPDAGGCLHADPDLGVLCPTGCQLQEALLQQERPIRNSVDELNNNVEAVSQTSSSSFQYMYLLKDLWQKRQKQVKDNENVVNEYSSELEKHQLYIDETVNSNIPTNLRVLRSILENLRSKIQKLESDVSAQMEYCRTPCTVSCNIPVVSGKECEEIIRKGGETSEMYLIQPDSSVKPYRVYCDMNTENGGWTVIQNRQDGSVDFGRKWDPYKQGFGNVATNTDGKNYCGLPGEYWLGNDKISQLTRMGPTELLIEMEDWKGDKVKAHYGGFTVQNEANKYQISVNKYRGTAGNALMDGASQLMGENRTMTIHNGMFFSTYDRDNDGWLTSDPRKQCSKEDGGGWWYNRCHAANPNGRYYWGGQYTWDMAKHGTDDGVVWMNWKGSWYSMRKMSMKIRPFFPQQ

Each compound was assayed against Fibrinogen beta chain (Homo sapiens) (UniProt P02675) (assay: inhibitors of Tn6 peptide binding to fibrin DD(E), primary screen, biochemical, fluorescence polarization, human fibrin, Tn6 probe (AID 720509;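 further: 0% = median of all compound wells on the plate and 100% = blocking peptide control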)). Conditions: Fibrin DD(E) TRITC-Tn6 fluorescence polarization displacement; at 8.3 µM; hits give high values.

SMILES	inhibition
O=C(OC1CN2CCC1CC2)C(CO)(c1ccccc1)c1ccccc1 (stereo unspecified)	inactive: 11.8%
CN(C)c1cccc(C(=O)NCC2(N(C)C)CCCCC2)c1	inactive: 11.2%
CC(C)Oc1ccc(C(=O)NCC2(N(C)C)CCCCC2)cc1	inactive: 6.47%
O=C(OCCN1CCCC1)C(O)(c1ccccc1)c1ccccc1	inactive: 0.78%
COc1ccc(Br)c(C(=O)NCC2(N3CCCCC3)CCCCC2)c1	inactive: 2.68%
C=C(C)C#CC(O)(C(=O)OC1CCN(C)CC1)c1ccccc1 (stereo unspecified)	inactive: -1.48%
COc1cc(C(=O)NCC2(N(C)C)CCCCC2)c([N+](=O)[O-])cc1OC	inactive: -3.87%
CN(C)C1(CNC(=O)c2ccc(Br)cc2)CCCCC1	inactive: -2.12%
O=C(NCC1(N2CCCCC2)CCCCC1)c1cccc(Cl)c1	inactive: -4.13%
COc1cccc(C(=O)NCC2(N3CCCCC3)CCCCC2)c1	inactive: -1.19%
COc1ccc(Cl)cc1C(=O)NCC1(N(C)C)CCCCC1	inactive: 2.51%
Cc1ccccc1C(=O)NCC1(N2CCCCC2)CCCCC1	inactive: -2.09%
CN(C)C1CCCC1OC(=O)C(O)(c1ccccc1)c1ccccc1 (stereo unspecified)	inactive: 0%
CN(C)c1ccc(C(=O)NCC2(N(C)C)CCCCC2)cc1	inactive: -1.86%
Cc1cc(C(=O)NCC2(N3CCCCC3)CCCCC2)ccc1[N+](=O)[O-]	inactive: -4.31%
CCN1CCCC(OC(=O)C2(O)c3ccccc3C=Cc3ccccc32)C1 (stereo unspecified)	inactive: -1.48%
O=C(NCC1(N2CCCCC2)CCCCC1)c1cccc(Br)c1	inactive: 12.7%
COc1ccc(C(=O)NCC2(N(C)C)CCCCC2)cc1	inactive: 8.6%
C=CCN1CCN(CCOC(=O)C(O)(c2ccccc2)c2ccccc2)CC1	inactive: 6.24%
O=C(NCC1(N2CCCCC2)CCCCC1)c1cc(F)c(F)cc1Cl	inactive: -0.18%
CN1[C@@H]2CC[C@H]1CC(OC(=O)C(O)(c1ccccc1)c1ccccc1)C2 (stereo partly specified)	inactive: -2.04%
O=C(NCC1(N2CCCCC2)CCCCC1)c1cc([N+](=O)[O-])ccc1Cl	inactive: -2.44%
Cc1ccc(C(=O)NCC2(N3CCCCC3)CCCCC2)cc1	inactive: 3.7%
CC(C)N1C(=O)CC2(CCN(CCOC(=O)C(O)(c3ccccc3)c3ccccc3)CC2)C1=O	inactive: 8.71%
CCN(CC)CC(C)C(C)OC(=O)C(O)(c1ccccc1)c1ccccc1 (stereo unspecified)	inactive: -0.02%
COc1cc(SC)ccc1C(=O)NCC1(N(C)C)CCCCC1	inactive: 0.9%
